Earlier results as cited in patent publication US5266571A, “Treatment of hemorrhoids with 5-HT2 antagonists” (priority 1992, dated 1993).

Test system: 5-HT2 receptor
Details: background statement; cited from earlier work

CN1CCN2c3ccccc3Cc3ccccc3C2C1 (stereo not shown) [mianserin]
inhibition of modulation of phosphatidylinositol turnover by 5-HT2 receptor: inhibited
